The record followed here is ChEMBL document CHEMBL1134793, “Investigation of the selectivity of oxymorphone- and naltrexone-derived ligands via site-directed mutagenesis of opioid receptors: exploring the "address" recognition locus” (J Med Chem, 2001).

Sequences of proteins named here, by UniProt entry; tags and fusion partners are left off.
UniProt P33535, whole entry K303E: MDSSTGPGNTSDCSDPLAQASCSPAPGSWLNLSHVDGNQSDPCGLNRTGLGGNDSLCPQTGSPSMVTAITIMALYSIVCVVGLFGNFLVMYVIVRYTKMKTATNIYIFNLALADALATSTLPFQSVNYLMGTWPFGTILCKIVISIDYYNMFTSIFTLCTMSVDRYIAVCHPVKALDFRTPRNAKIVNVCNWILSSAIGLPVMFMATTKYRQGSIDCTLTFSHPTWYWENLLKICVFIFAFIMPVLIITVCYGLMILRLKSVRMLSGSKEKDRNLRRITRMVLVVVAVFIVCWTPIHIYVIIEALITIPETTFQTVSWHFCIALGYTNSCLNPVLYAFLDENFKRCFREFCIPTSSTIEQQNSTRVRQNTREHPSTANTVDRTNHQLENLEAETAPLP
UniProt P33535, whole entry W318A: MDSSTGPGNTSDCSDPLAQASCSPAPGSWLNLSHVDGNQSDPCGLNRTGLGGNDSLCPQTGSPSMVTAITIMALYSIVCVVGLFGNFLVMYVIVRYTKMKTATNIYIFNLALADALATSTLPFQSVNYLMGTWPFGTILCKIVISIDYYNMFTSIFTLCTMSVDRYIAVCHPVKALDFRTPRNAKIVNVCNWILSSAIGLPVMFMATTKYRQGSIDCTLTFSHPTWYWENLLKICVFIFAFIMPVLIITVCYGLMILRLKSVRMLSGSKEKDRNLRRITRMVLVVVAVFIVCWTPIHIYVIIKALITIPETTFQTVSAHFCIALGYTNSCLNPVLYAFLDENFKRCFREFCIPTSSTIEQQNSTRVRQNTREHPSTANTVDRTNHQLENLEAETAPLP
UniProt P33535, whole entry: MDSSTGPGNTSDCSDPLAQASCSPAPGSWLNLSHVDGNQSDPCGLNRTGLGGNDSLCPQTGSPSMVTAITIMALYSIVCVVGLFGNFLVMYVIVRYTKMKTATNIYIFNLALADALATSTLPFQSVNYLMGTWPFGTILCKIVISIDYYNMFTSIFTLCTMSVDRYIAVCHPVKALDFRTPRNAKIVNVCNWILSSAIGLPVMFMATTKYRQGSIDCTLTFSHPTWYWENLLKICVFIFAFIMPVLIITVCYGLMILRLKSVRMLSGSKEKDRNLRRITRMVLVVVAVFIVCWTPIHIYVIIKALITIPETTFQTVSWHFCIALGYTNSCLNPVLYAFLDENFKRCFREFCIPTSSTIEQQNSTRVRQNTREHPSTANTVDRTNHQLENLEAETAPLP

Several values for one entry are separate records, joined by “and”; a condition that tells them apart may be missing. Identical values can stand only once.

Holding throughout (assay type): cell-based, HEK293
Test [1] has as its target Mu-type opioid receptor (Rattus norvegicus, UniProt P33535, K303E). Put plainly: Displacement of [3H]- diprenorphine from mu-K303E-receptor expressed in HEK 293.
In test [2] the target is T1, Mu-type opioid receptor (Rattus norvegicus, UniProt P33535, W318A). Put plainly: Displacement of [3H]- diprenorphine from mu-W318A-receptor expressed in HEK 293.
The target in test [3] is Mu-type opioid receptor (Rattus norvegicus, UniProt P33535). Put plainly: Displacement of [3H]- diprenorphine from mu-receptor expressed in HEK 293 cells. (In general: Displacement assays read how much labelled ligand stays bound in the presence of the test substance.)
The target in test [4] is T1, Mu-type opioid receptor. The experiment in a line: Displacement of [3H]- diprenorphine from mu-W318A-receptor expressed in HEK 293 cells.

Consider `Oc1ccc2c3c1O[C@H]1c4[nH]c5ccccc5c4C[C@@]4(O)[C@@H](C2)N(CC2CC2)CC[C@]314` [NALTRINDOLE], for which the inhibitory constant (Ki) on Mu-type opioid receptor [1] was found to be 13.5 nM; on Mu-type opioid receptor [2], 0.36 nM; on Mu-type opioid receptor [3], 34.4 nM.
With `Oc1ccc2c3c1O[C@H]1c4[nH]c5c(c4C[C@@]4(O)[C@@H](C2)N(CC2CC2)CC[C@]314)C[C@@]1(O)[C@H]2Cc3ccc(O)c4c3[C@@]1(CCN2CC1CC1)[C@H]5O4` [NORBINALTORPHIMINE], the Ki was 0.39 nM and 0.22 nM at Mu-type opioid receptor [4]; 56.6 nM at Mu-type opioid receptor [3].

For orientation: Ki means a dissociation constant, usually derived from enzyme kinetics or from competition with a known ligand. High values mean weaker binding, low ones tighter binding.
